The assay deals with Dual specificity tyrosine-phosphorylation-regulated kinase 1A (Homo sapiens, UniProt Q13627).

Take `CCN1/C(=C/C(C)=O)Sc2ccc(OC)cc21`: 57.3 nM corresponded to half-maximal inhibition (IC50).

The values are drawn from ChEMBL document CHEMBL5543160, “Psychoplastogenic DYRK1A Inhibitors with Therapeutic Effects Relevant to Alzheimer's Disease” (J Med Chem, 2024).
